Consider one compound from ChEMBL document CHEMBL1143388 (Bioorg Med Chem, 2009).

The chains behind the UniProt entries cited, without tags or fusion partners. Where a name states a change or a piece, a line headed by the entry shows the natural chain unless it says otherwise.
UniProt P41145: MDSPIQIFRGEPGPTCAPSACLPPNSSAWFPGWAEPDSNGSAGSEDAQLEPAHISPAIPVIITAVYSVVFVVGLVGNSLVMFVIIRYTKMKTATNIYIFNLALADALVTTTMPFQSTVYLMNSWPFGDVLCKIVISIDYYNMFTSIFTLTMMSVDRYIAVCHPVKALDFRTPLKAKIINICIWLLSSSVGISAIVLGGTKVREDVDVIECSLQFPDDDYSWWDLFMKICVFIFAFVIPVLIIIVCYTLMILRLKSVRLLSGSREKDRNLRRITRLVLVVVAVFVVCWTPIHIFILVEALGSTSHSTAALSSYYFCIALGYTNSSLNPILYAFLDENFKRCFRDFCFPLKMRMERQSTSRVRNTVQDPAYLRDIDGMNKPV

As usually defined, the Emax is the size of the effect at its maximum, as opposed to the concentration needed.

The test addresses Kappa-type opioid receptor (Homo sapiens, UniProt P41145). In words: Agonist activity at human KOPR expressed in CHO cells assessed as enhancement of [35S]GTPgammaS binding at 10 uM relative to U50488. It is filed as functional, cell-based. A general note: GTPγS is a poorly hydrolysed GTP analogue; its binding reports G protein activation.

`CN(C(=O)Cc1ccc(Cl)c(Cl)c1)C1CCCCC1N1CCCC1` (stereo unspecified): the Emax came to 100%.
